Source: US8952177B2 (Janssen Pharmaceutica NV, priority 2013, dated 2015)
Structures can show the parent of a compound that is named as a salt.

Amino acid sequences for entries named in this document (tags omitted). A change or cut given only in a name is not applied to a line headed by its entry.
UniProt P20292: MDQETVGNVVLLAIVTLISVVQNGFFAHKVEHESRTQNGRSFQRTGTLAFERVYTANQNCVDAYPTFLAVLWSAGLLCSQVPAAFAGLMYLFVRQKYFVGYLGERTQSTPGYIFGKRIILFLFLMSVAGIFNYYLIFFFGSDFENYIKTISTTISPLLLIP

Target: human FLAP (Homo sapiens (Human), UniProt P20292)
Test: FLAP binding assay (HTRF format)
Settings: human FLAP-containing Sf-9 membranes, 25 nM HTRF ligand, 2 h; average of runs; read-out: FLAP Binding wild type HTRF Ki

**Q.** For `Cc1ccc(COc2ccc3nc([C@H]4CCCC[C@@H]4C(=O)O)n(Cc4ccc(OC(F)(F)F)cc4F)c3c2)nc1` (racemic) [Example 21, racemic trans-2-{1-[2-Fluoro-4-(trifluoromethoxy)benzyl]-6-[(5-methylpyridin-2-yl)methoxy]-1H-benzimidazol-2-yl}cyclohexanecarboxylic acid], which Ki is on record?
**A.** 9 nM

**Q.** How did the Ki turn out when `Cc1cnc(COc2ccc3nc([C@@H]4CCCC[C@@H]4C(=O)O)n(Cc4ccc(N5CCC(F)CC5)cc4F)c3c2)c(F)c1` (stereo in doubt) [Example 175, (1S*,2R*)-2-{1-[2-Fluoro-4-(4-fluoropiperidin-1-yl)benzyl]-6-[(3-fluoro-5-methylpyridin-2-yl)methoxy]-1H-benzimidazol-2-yl}cyclohexanecarboxylic acid] was run?
**A.** 70 nM

**Q.** Which Ki does the source give for `CCC(CC)(Cc1nc2ccc(OCc3ccn(C)n3)cc2n1Cc1ccc(N2CCCC(F)(F)C2)cc1)C(=O)O` [Example 155, 2-({1-[4-(3,3-Difluoropiperidin-1-yl)benzyl]-6-[(1-methyl-1H-pyrazol-3-yl)methoxy]-1H-benzimidazol-2-yl}methyl)-2-ethylbutanoic acid] here?
**A.** ~620 nM

**Q.** How did the Ki turn out when `Cc1ccc(COc2ccc3nc([C@H]4CCCC[C@@H]4C(=O)O)n(Cc4c(F)cc(Br)cc4F)c3c2)nc1` (racemic) [Example 140, racemic trans-2-{1-(4-Bromo-2,6-difluorobenzyl)-6-[(5-methylpyridin-2-yl)methoxy]-1H-benzimidazol-2-yl}cyclohexanecarboxylic acid] was run?
**A.** 3 nM

**Q.** Which Ki does the source give for `Cc1ccc(COc2ccc3nc([C@@H]4[C@H](C(=O)O)C4(C)C)n(Cc4ccc(Br)cc4F)c3c2)nc1` (stereo in doubt) [Example 15, racemic cis-3-{1-(4-Bromo-2-fluorobenzyl)-6-[(5-methylpyridin-2-yl)methoxy]-1H-benzimidazol-2-yl}-2,2-dimethylcyclopropanecarboxylic acid] here?
**A.** 49 nM

**Q.** Which Ki does the source give for `Cn1ccc(COc2ccc3nc([C@@H]4CCCC[C@@H]4C(=O)O)n(Cc4ccc(N5CCC(F)(F)CC5)cc4)c3c2)n1` (racemic) [Example 86, racemic cis-2-{1-[4-(4,4-Difluoropiperidin-1-yl)benzyl]-6-[(1-methyl-1H-pyrazol-3-yl)methoxy]-1H-benzimidazol-2-yl}cyclohexanecarboxylic acid] here?
**A.** 9.7 nM

**Q.** How did the Ki turn out when `COc1ncc(-c2ccc(Cn3c([C@H]4CCCC[C@H]4C(=O)O)nc4ccc(OCc5ccc(C)cn5)cc43)cc2)cn1` (racemic) [Example 144, racemic cis-2-{1-[4-(2-Methoxypyrimidin-5-yl)benzyl]-6-[(5-methylpyridin-2-yl)methoxy]-1H-benzimidazol-2-yl}cyclohexanecarboxylic acid] was run?
**A.** 64 nM

**Q.** For `Cc1ccc(COc2ccc3nc([C@H]4CCCC[C@H]4C(=O)O)n(Cc4ccc(OC(F)(F)F)c(Cl)c4)c3c2)nc1` (racemic) [Example 32, racemic cis-2-{1-[3-Chloro-4-(trifluoromethoxy)benzyl]-6-[(5-methylpyridin-2-yl)methoxy]-1H-benzimidazol-2-yl}cyclohexanecarboxylic acid], which Ki is on record?
**A.** 5.6 nM

**Q.** For `Cc1ccc(COc2ccc3nc([C@H]4CCCC[C@H]4C(=O)O)n(Cc4ccc(OC(F)(F)F)c(F)c4)c3c2)nc1` (racemic) [Example 20, racemic cis-2-{1-[3-Fluoro-4-(trifluoromethoxy)benzyl]-6-[(5-methylpyridin-2-yl)methoxy]-1H-benzimidazol-2-yl}cyclohexanecarboxylic acid], which Ki is on record?
**A.** 8 nM

**Q.** `Cn1ccc(COc2ccc3nc(C4CCCC[C@H]4C(=O)O)n(Cc4ccc(Br)cc4)c3c2)n1` (mixture of isomers) [Example 41, racemic trans-2-{1-(4-Bromobenzyl)-6-[(1-methyl-1H-pyrazol-3-yl)methoxy]-1H-benzimidazol-2-yl}cyclohexanecarboxylic acid as the TFA salt] was tested. Which Ki did it give?
**A.** 11 nM

**Q.** For `Cn1ccc(COc2ccc3nc(C4CCCC[C@H]4C(=O)O)n(Cc4ccc(Br)cc4)c3c2)n1` (mixture of isomers) [Example 40, racemic cis-2-{1-(4-Bromobenzyl)-6-[(1-methyl-1H-pyrazol-3-yl)methoxy]-1H-benzimidazol-2-yl}cyclohexanecarboxylic acid as the TFA salt], which Ki is on record?
**A.** 3.9 nM

**Q.** For `Cc1ccc(COc2ccc3nc([C@@H]4CCCC[C@@H]4C(=O)O)n(Cc4ccc(OC(F)(F)F)cc4)c3c2)nc1` (stereo in doubt) [Example 29, (1S*,2R*)-2-{6-[(5-Methylpyridin-2-yl)methoxy]-1-[4-(trifluoromethoxy)benzyl]-1H-benzimidazol-2-yl}cyclohexanecarboxylic acid], which Ki is on record?
**A.** ~2500 nM

**Q.** `Cc1cnc(COc2ccc3nc([C@H]4CCCC[C@@H]4C(=O)O)n(Cc4c(F)cc(Br)cc4F)c3c2)c(F)c1` (racemic) [Example 124, racemic trans-2-{1-(4-Bromo-2,6-difluorobenzyl)-6-[(3-fluoro-5-methylpyridin-2-yl)methoxy]-1H-benzimidazol-2-yl}cyclohexanecarboxylic acid] was tested. Which Ki did it give?
**A.** 0.52 nM

**Q.** Which Ki does the source give for `CCC(CC)(Cc1nc2c(F)cc(OCc3ccc(C)cn3)cc2n1Cc1ccc(OC(F)(F)F)cc1)C(=O)O` [Example 69, 2-Ethyl-2-({4-fluoro-6-[(5-methylpyridin-2-yl)methoxy]-1-[4-1-trifluoromethoxy)benzyl]-1H-benzimidazol-2-yl}methyl)butanoic acid as the TFA salt] here?
**A.** 17 nM

**Q.** Which Ki does the source give for `Cc1ccc(COc2ccc3nc(C4CCCC[C@H]4C(=O)O)n(Cc4ccc(N5CC(F)(F)C5)cc4F)c3c2)nc1` (mixture of isomers) [Example 165, racemic cis-2-{1-[4-(3,3-Difluoroazetidin-1-yl)-2-fluorobenzyl]-6-[(5-methylpyridin-2-yl)methoxy]-1H-benzimidazol-2-yl}cyclohexanecarboxylic acid] here?
**A.** 11 nM

**Q.** `Cc1ccc(COc2ccc3nc(C4CCCC[C@H]4C(=O)O)n(Cc4ccc(N5CCC(F)(F)C5)cc4)c3c2)nc1` (mixture of isomers) [Example 152, racemic cis-2-{1-[4-(3,3-Difluoropyrrolidin-1-yl)benzyl]-6-[(5-methylpyridin-2-yl)methoxy]-1H-benzimidazol-2-yl}cyclohexanecarboxylic acid] was tested. Which Ki did it give?
**A.** 2.4 nM

**Q.** For `Cc1ccc(COc2ccc3nc([C@@H]4CCCC[C@H]4C(=O)O)n(Cc4ccc(Br)cc4)c3c2)nc1` (single isomer, unassigned) [Example 7], which Ki is on record?
**A.** 2.2 nM

**Q.** With `Cc1ccc(COc2ccc3nc(C4CCCC[C@@H]4C(=O)O)n(Cc4ccc(Br)cc4)c3c2)nc1` (mixture of isomers) [Example 5, racemic trans-2-{1-(4-Bromobenzyl)-6-[(5-methylpyridin-2-yl)methoxy]-1H-benzimidazol-2-yl}cyclohexanecarboxylic acid as the TFA salt] as the compound, how does the Ki read?
**A.** 6.4 nM

**Q.** `Cc1ccc(COc2cc(Cl)c3nc(C4CCCC[C@@H]4C(=O)O)n(Cc4ccc(Br)cc4)c3c2)nc1` (mixture of isomers) [Example 77, racemic trans-2-{1-(4-Bromobenzyl)-4-chloro-6-[(5-methylpyridin-2-yl)methoxy]-1H-benzimidazol-2-yl}cyclohexanecarboxylic acid] was tested. Which Ki did it give?
**A.** 19 nM

**Q.** For `CCC(CC)(Cc1nc2ccc(OCc3ccn(C)n3)cc2n1Cc1ccc(C#N)cc1)C(=O)O` [Example 49, 2-({1-(4-Cyanobenzyl)-6-[(1-methyl-1H-pyrazol-3-yl)methoxy]-1H-benzimidazol-2-yl}methyl)-2-ethylbutanoic acid as the TFA salt], which Ki is on record?
**A.** ~1880 nM

**Q.** For `Cc1ccc(COc2ccc3nc([C@H]4CCCC[C@H]4C(=O)O)n(Cc4ccc(OC(F)(F)F)cc4F)c3c2)nc1` (racemic) [Example 26, racemic cis-2-{1-[2-Fluoro-4-(trifluoromethoxy)benzyl]-6-[(5-methylpyridin-2-yl)methoxy]-1H-benzimidazol-2-yl}cyclohexanecarboxylic acid], which Ki is on record?
**A.** 4.3 nM

**Q.** Which Ki does the source give for `Cc1ccc(COc2ccc3nc([C@@H]4CCCC[C@@H]4C(=O)O)n(Cc4ccc(Br)cc4)c3c2)nc1` (single isomer, unassigned) [Example 2] here?
**A.** 1.4 nM

**Q.** How did the Ki turn out when `Cc1ccc(COc2ccc3nc([C@@H]4CCCC[C@@H]4C(=O)O)n(Cc4ccc(OC(F)(F)F)c(C)c4)c3c2)nc1` (racemic) [Example 109, racemic cis-2-{6-[(5-Methylpyridin-2-yl)methoxy]-1-[3-methyl-4-(trifluoromethoxy)benzyl]-1H-benzimidazol-2-yl}cyclohexanecarboxylic acid] was run?
**A.** 2.6 nM

**Q.** `Cc1ccc(COc2ccc3nc(C4CCCC[C@@H]4C(=O)O)n(Cc4ccc(Br)cc4)c3c2)nc1` (single isomer, unassigned) [Example 6] was tested. Which Ki did it give?
**A.** 390 nM

**Q.** `Cc1ccc(COc2cc(Cl)c3nc([C@@H]4[C@H](C(=O)O)C4(C)C)n(Cc4ccc(Br)cc4)c3c2)nc1` (racemic) [Example 76, racemic cis-3-{1-(4-Bromobenzyl)-4-chloro-6-[(5-methylpyridin-2-yl)methoxy]-1H-benzimidazol-2-yl}-2,2-dimethylcyclopropanecarboxylic acid] was tested. Which Ki did it give?
**A.** 21 nM

**Q.** With `Cc1ccc(COc2ccc3nc([C@@H]4CCCC[C@@H]4C(=O)O)n(Cc4ccc(N5CCC(F)(F)C5)cc4F)c3c2)nc1` (stereo in doubt) [Example 164, (1S*,2R*)-2-{1-[4-(3,3-Difluoropyrrolidin-1-yl)-2-fluorobenzyl]-6-[(5-methylpyridin-2-yl)methoxy]-1H-benzimidazol-2-yl}cyclohexanecarboxylic acid] as the compound, how does the Ki read?
**A.** ~750 nM

**Q.** `Cc1cnc(COc2ccc3nc([C@@H]4CCCC[C@@H]4C(=O)O)n(Cc4ccc(Br)cc4)c3c2)c(F)c1` (racemic) [Example 125, racemic cis-2-{1-(4-Bromobenzyl)-6-[(3-fluoro-5-methylpyridin-2-yl)methoxy]-1H-benzimidazol-2-yl}cyclohexanecarboxylic acid] was tested. Which Ki did it give?
**A.** 1.1 nM

**Q.** For `Cc1ccc(COc2ccc3nc(C4CCCC[C@H]4C(=O)O)n(Cc4ccc(N5CCCCC5)cc4)c3c2)nc1` (mixture of isomers) [Example 156, racemic cis-2-{6-[(5-Methylpyridin-2-yl)methoxy]-1-(4-piperidin-1-ylbenzyl)-1H-benzimidazol-2-yl}cyclohexanecarboxylic acid], which Ki is on record?
**A.** 6.8 nM

**Q.** Which Ki does the source give for `CCC(CC)(Cc1nc2ccc(OCc3ccc(C)cn3)cc2n1Cc1ccc(OC(F)(F)F)c(F)c1)C(=O)O` [Example 30, 2-Ethyl-2-({1-[3-fluoro-4-(trifluoromethoxy)benzyl]-6-[(5-methylpyridin-2-yl)methoxy]-1H-benzimidazol-2-yl}methyl)butanoic acid] here?
**A.** ~80 nM
